# Yeast mating assay B: variants of the scFv Ab-14

Binding partner: SARS-CoV-2 spike HR2 peptide, sequence PDVDLGDISGINAS.

Ab-14 is the parent antibody, in scFv form: VH, then the linker GGGGSGGGGSGGGGS, then VL. The heavy chain is unchanged in all variants.
VH: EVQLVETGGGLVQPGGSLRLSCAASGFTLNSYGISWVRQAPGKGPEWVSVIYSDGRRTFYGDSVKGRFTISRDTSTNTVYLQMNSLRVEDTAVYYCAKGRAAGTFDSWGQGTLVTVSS
VL: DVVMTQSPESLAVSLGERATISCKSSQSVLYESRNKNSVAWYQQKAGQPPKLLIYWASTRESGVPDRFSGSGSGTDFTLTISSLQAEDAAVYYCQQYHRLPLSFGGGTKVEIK

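The variants were designed computationally from a first round of random CDR variants and then made and measured. Their group label is 14L_En_HC (En: ensemble of fine-tuned language models; HC: hill climbing; a sequence that several methods proposed may carry one label only). In AlphaSeq, yeast of one mating type display the scFv and yeast of the other type display the target. After mating in shaken culture at 30 °C for 16 h, diploids were selected and their barcode pairs sequenced. Scores were corrected for input abundance and mapped to Kd with protein pairs of known affinity run in the same pool. The assay was run in six technical replicates.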

Variants are written as CDR1, CDR2 and CDR3 of the light chain (limits as in the source). Parent: KSSQSVLYESRNKNSVA, WASTRES, QQYHRLPLS. The read-out is the apparent dissociation constant on a log10 scale (nM): the lower, the stronger. Replicates are averaged; those with no signal do not enter the mean. An entry "ND" has no value in the source: the pair was not observed among the diploids in that replicate. This suggests poor binding but is not conclusive. Nonspecific signal, from three strains lacking the peptide, appeared in 4% of pairings of all light chain designs, centred on 2.64 (5% of these signals below 1.59); values are not corrected for it. For each scFv, signals with the empty controls are counted beside the result, with their mean in brackets. The parent sequence was in this pool as ten entries: three were never detected, three once, and four in most replicates, with averages from 0.34 to 2.37. Values of this round are not directly comparable with the first-round values of the same sequences. In the paper, a design with two or fewer of six values counts as a poor binder.

CDR-L1,CDR-L2,CDR-L3,log10 Kd (nM) by replicate,"log10 Kd (nM), mean",signal with controls
TIGQMFNGESRIRNSVA,QASTREE,QSYDRLPLS,1.45 / 1.10 / 1.38 / 1.14 / 1.03 / 1.53,1.27,0/18
MLLQSTMYGERNRNSVA,HASTRED,QQYNRLPLI,0.74 / 0.64 / 0.34 / 0.34 / 0.84 / 0.85,0.62,2/18 (2.70)
KFGYSVLTGSYVRNSVA,QQSTREN,QQYDRLPLS,0.87 / 1.85 / ND / 2.61 / 1.58 / 1.15,1.61,0/18
KISMSYRYESQEENSIA,EMSTREE,QSYHRLPLS,ND / ND / ND / ND / ND / ND,ND,0/18
MMSMGYLGGMRAKNNVA,QEETREN,QQYHRLPLI,1.81 / 2.78 / ND / ND / 1.91 / ND,2.17,0/18
KISQMTNFESTHINAVA,QMSTREE,QQYFRLPLS,0.68 / 0.05 / 0.26 / 0.24 / 0.07 / 0.51,0.30,0/18
MLSDLNKMGVRNTQSVA,DNSTRGQ,QQYDRLPLS,0.90 / 0.84 / 0.36 / 0.04 / 0.30 / 0.52,0.49,0/18
KISQSILFMSGKKNAIA,QMEMREE,QQYDRLPLS,ND / 1.16 / 1.53 / ND / 1.32 / 0.82,1.21,0/18
KLRQLTHIESFNKNNVA,EMTTREQ,QSYDRLPLS,1.80 / 1.34 / 1.45 / 1.22 / 1.75 / 1.54,1.52,0/18
KLRQSTHIESFNKNNVA,EMTTREQ,QSYDRLPLS,0.65 / 0.86 / 0.43 / 0.71 / 0.62 / 0.78,0.67,1/18 (1.95)
TLGTSTLEESRNKNSVA,EMSMRES,QSYNRLPLS,ND / 1.74 / ND / 3.25 / ND / 0.90,1.96,1/18 (1.31)
HLSDTVMQGSYYRNSVA,QEETRAD,QQYHHLPLS,0.07 / 0.38 / 0.59 / -0.02 / 0.50 / 0.54,0.34,0/18
TISQMWFIEEKNRNNVA,EMTTREN,QDYDRLPLS,0.88 / 1.11 / 0.73 / 0.58 / 0.84 / 0.67,0.80,1/18 (2.61)
KISQTFNVGTKNKNSLA,EMSTREF,QDYNRLPLS,1.79 / 2.18 / 1.38 / 1.50 / 1.88 / 2.60,1.89,0/18
MLLQSTMYGERNRNSVA,HASTRCD,QQYHRLPLI,0.88 / 0.97 / 0.91 / 0.84 / 1.05 / 1.24,0.98,0/18
KLQQFYRMETRNKNSVA,DNSTRES,QDYDRLPLS,ND / ND / ND / ND / ND / ND,ND,1/18 (1.32)
ILSQMLLTAGNKHNSVA,QANYRED,QQYHRLPLS,1.43 / 0.57 / 0.78 / 2.02 / 0.56 / 0.58,0.99,0/18
KISMYLNKESKAGNNVA,EMVTRES,QQYDRLPLS,0.70 / 1.29 / 0.89 / 0.97 / 0.78 / 1.09,0.95,2/18 (3.21)
KISMMYRFESTANNSIA,EMTTRAE,QSYHRLPLS,1.98 / 1.22 / ND / 1.13 / 0.68 / ND,1.25,0/18
MISDLTMYGSRNKNSVA,DLSTRGS,QQYARLPLS,0.39 / 0.80 / 0.74 / 0.66 / 1.02 / 0.50,0.68,0/18
KISQNMGETQRNKNSVA,EVSLVPD,QQYWRLPLS,0.31 / 0.36 / -0.34 / 0.19 / 0.88 / 0.41,0.30,1/18 (0.57)
KIMQSLNYEQFNVSSVA,GQETRER,QAYHRLPLS,ND / ND / ND / ND / ND / 3.62,3.62,1/18 (2.06)
TISQSAHMESHNRNNVA,DLNLRGS,QQYDRLPLS,0.39 / 0.62 / 0.66 / 0.60 / 0.35 / 0.49,0.52,0/18
KLRSMTLTEGYFKNSVA,QASTREN,QSYHRLPLS,0.98 / 1.18 / 0.82 / 0.74 / 1.36 / 1.46,1.09,0/18
KLRQVTGYESFNKNSVA,QTSTRES,QDYDRLPLS,ND / 1.55 / ND / 2.67 / ND / 3.25,2.49,0/18
MIAQGMRGVGRNKNSVA,NAQTRES,QHYHRLPLS,1.19 / 0.83 / 1.03 / 0.93 / 0.80 / 0.93,0.95,1/18 (3.17)
TLMQVGGYESNNHNSIA,DLRTRES,QQYHRLPLS,ND / 1.95 / 0.53 / 1.89 / 0.10 / 2.04,1.30,0/18
KLYQSMGYLSHNKNSIA,DMSRRES,QQYHRLPLS,0.44 / 0.31 / 0.52 / 0.50 / 0.42 / 0.60,0.47,0/18
KIGGVTNGMSRNKNSVA,EQQTRED,QQYNRLPLS,0.72 / 0.20 / 0.12 / -0.13 / 0.00 / 0.31,0.20,2/18 (2.31)
KLGQVTENMQLNRNSVA,HMSTRED,QQYHRLPLS,0.96 / 0.98 / 0.54 / 0.23 / 0.66 / 0.55,0.65,0/18
MISDLTMYGSRNKNSVA,DLSHRGS,QQYHRLPLS,0.88 / 0.42 / 0.52 / 0.91 / 0.62 / 0.61,0.66,0/18
KIGSGTNGEKFQSNSVA,QAETREE,QQYHRLPLS,0.62 / 0.70 / 0.43 / 0.33 / 0.44 / 0.84,0.56,3/18 (3.05)
QLLMATMQESYNKNSVA,HAETRED,QSYHRLPLS,ND / ND / 3.35 / 1.42 / 2.40 / ND,2.39,1/18 (1.91)
TISQSFLMENQFKNSVA,QASTRER,QCYDRLPLS,1.13 / 1.04 / 0.66 / 0.40 / 1.03 / 0.48,0.79,2/18 (3.59)

Data: MIT Lincoln Laboratory AlphaSeq set, Li et al. 2023, doi:10.1038/s41467-023-39022-2, as distributed in FLAb.